# Key:
# [1] = biological target: synthetic histone H4 peptide aa 1-21
# [2] = biological target: histone H4 (purified human histones isolated from HEK293T cells)
# [3] = biological target: Sp1, P08047
# [4] = biological target: T1, synthetic histone H4 peptide aa 15-24
# T1 chain: GAKRHRKVLR
# [5] = biological target: histone H3 (histones isolated from HEK293T cells)
# [6] = biological target: p53
# [7] = biological target: recombinant human full-length histone H4
# [8] = biological target: T2, NF-kB p65 (RelA), Q04206
# T2 chain: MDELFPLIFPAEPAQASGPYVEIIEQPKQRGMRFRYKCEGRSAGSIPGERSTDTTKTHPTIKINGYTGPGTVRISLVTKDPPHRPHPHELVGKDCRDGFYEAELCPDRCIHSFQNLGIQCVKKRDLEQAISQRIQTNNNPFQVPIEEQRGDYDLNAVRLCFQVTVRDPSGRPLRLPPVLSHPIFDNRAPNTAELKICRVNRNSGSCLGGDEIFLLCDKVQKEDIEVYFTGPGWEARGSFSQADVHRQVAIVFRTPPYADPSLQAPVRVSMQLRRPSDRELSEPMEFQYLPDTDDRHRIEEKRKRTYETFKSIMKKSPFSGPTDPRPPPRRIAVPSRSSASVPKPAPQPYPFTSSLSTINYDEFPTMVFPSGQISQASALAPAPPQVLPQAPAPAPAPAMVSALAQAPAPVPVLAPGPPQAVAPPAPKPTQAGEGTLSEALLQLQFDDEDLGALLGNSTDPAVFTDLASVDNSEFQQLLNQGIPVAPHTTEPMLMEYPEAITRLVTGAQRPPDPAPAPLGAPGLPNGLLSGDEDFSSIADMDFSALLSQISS
protein,measurement,setting,value
"recombinant SMYD2 (SET and MYND domain containing-2 histone methyltransferase), wild type (protein) MRAEGLGGLERFCSPGKGRGLRALQPFQVGDLLFSCPAYAYVLTVNERGNHCEYCFTRKEGLSKCGRCKQAFYCNVECQKEDWPMHKLECSPMVVFGENWNPSETVRLTARILAKQKIHPERTPSEKLLAVKEFESHLDKLDNEKKDLIQSDIAALHHFYSKHLGFPDNDSLVVLFAQVNCNGFTIEDEELSHLGSAIFPDVALMNHSCCPNVIVTYKGTLAEVRAVQEIKPGEEVFTSYIDLLYPTEDRNDRLRDSYFFTCECQECTTKDKDKAKVEIRKLSDPPKAEAIRDMVRYARNVIEEFRRAKHYKSPSELLEICELSQEKMSSVFEDSNVYMLHMMYQAMGVCLYMQDWEGALQYGQKIIKPYSKHYPLYSLNVASMWLKLGRLYMGLEHKAAGEKALKKAIAIMEVAHGKDHPYISEIKQEIESH",in vitro methylation of synthetic histone H4 peptides,[1],"Both peptides were efficiently methylated by SMYD2, a process suppressed by the addition of AZ391"
same,in vitro methylation of purified human histones (radio-labeled SAM),[2],Histone H4 was prominently methylated by SMYD2
same,"in vitro methylation (3H-SAM, autoradiography)",[3],but not other putative substrates such as p65 and Sp1
same,in vitro methylation of synthetic histone H4 peptides,[4],"Both peptides were efficiently methylated by SMYD2, a process suppressed by the addition of AZ391"
same,"in vitro methylation (3H-SAM, autoradiography)",[5],"SMYD2 also methylated histone H3 and p53, known substrates of SMYD2"
same,"in vitro methylation (3H-SAM, autoradiography)",[6],"SMYD2 also methylated histone H3 and p53, known substrates of SMYD2"
same,in vitro methylation of recombinant human histone H4,[7],"avidly methylated by SMYD2, a process inhibited by AZ391"
same,"in vitro methylation (3H-SAM, autoradiography)",[8],but not other putative substrates such as p65 and Sp1

# From patent US20180002699
